The values below come from PubChem BioAssay AID652154 (Broad Institute, 2013).

Molecules are shown by their SMILES. This is a selection; strong and weak results do not stand in their true shares. Some tests of the compounds listed are not included; inactive here does not mean inactive elsewhere. Activity calls are given as the source filed them.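 How the source made its calls: active means mean replicate inhibition at least 60% with every replicate also reaching 60%; inconclusive means only one of the two criteria is met; inactive means mean below 60% and not all replicates reaching 60%.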

The test can be described thus: inhibitors of PAX8-driven TPO luciferase reporter, primary screen, RMG-I cells, single concentration (AID 652154).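 Further: luciferase light reporting Pax8 driven TPO promoter activity; plate controls were median of neutral control wells for no effect and mitoxantrone controls for full effect.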 As to conditions: SteadyGlo, 24 h, at 12.6 µM, stronger effect = higher value. (In general: A reporter such as luciferase makes a cellular process visible.)
As usually defined, the inhibition is the drop in the measured response relative to a control, in per cent. `CN(C)C1CCCC1OC(=O)C(O)(c1ccccc1)c1ccccc1` (stereo not drawn): the inhibition was inactive: 11.6%. The figure for `CN(C)c1ccc(C(=O)NCC2(N(C)C)CCCCC2)cc1` is inactive: -24.5%; for `Cc1ccccc1C(=O)NCC1(N2CCCCC2)CCCCC1` it is inactive: 3.86%; for `COc1ccc(C(=O)NCC2(N(C)C)CCCCC2)cc1` it is inactive: -25.5%.

Regarding `O=C(NCC1(N2CCCCC2)CCCCC1)c1cccc(Br)c1`, the inhibition was inactive: 19.7%. The figure for `Cc1cc(C(=O)NCC2(N3CCCCC3)CCCCC2)ccc1[N+](=O)[O-]` is inactive: -15.1%; for `CCN1CCCC(OC(=O)C2(O)c3ccccc3C=Cc3ccccc32)C1` (stereo not drawn) it is inactive: 20.5%; for `O=C(NCC1(N2CCCCC2)CCCCC1)c1cc(F)c(F)cc1Cl` it is inactive: 8.7%. For `C=CCN1CCN(CCOC(=O)C(O)(c2ccccc2)c2ccccc2)CC1`, the inhibition is inactive: 20.2%.

Regarding `CN1[C@@H]2CC[C@H]1CC(OC(=O)C(O)(c1ccccc1)c1ccccc1)C2` (stereo partly drawn), the inhibition is inactive: -108%. In the case of `O=C(NCC1(N2CCCCC2)CCCCC1)c1cc([N+](=O)[O-])ccc1Cl`, the inhibition was inactive: 6.73%.

Regarding `Cc1ccc(C(=O)NCC2(N3CCCCC3)CCCCC2)cc1`, the inhibition was inactive: 21.4%. In the case of `COc1cc(SC)ccc1C(=O)NCC1(N(C)C)CCCCC1`, the inhibition is inactive: 8.54%.

As for `CCN(CC)CC(C)C(C)OC(=O)C(O)(c1ccccc1)c1ccccc1` (stereo not drawn), the inhibition was inactive: 1.09%.

Consider `O=C(OCCN1CCCC1)C(O)(c1ccccc1)c1ccccc1`, for which the inhibition was inactive: 0.598%.

Turning to `CC(C)Oc1ccc(C(=O)NCC2(N(C)C)CCCCC2)cc1`, the inhibition is inactive: -18.1%. Take `C=C(C)C#CC(O)(C(=O)OC1CCN(C)CC1)c1ccccc1` (stereo not drawn): the inhibition is inactive: -3.48%.

Take `COc1ccc(Br)c(C(=O)NCC2(N3CCCCC3)CCCCC2)c1`: the inhibition is inactive: 8.45%. Consider `COc1cc(C(=O)NCC2(N(C)C)CCCCC2)c([N+](=O)[O-])cc1OC`, for which the inhibition was inactive: 3.93%.

In the case of `CN(C)C1(CNC(=O)c2ccc(Br)cc2)CCCCC1`, the inhibition was inactive: 13.1%. The figure for `O=C(NCC1(N2CCCCC2)CCCCC1)c1cccc(Cl)c1` is inactive: 13.6%. `COc1ccc(Cl)cc1C(=O)NCC1(N(C)C)CCCCC1`: the inhibition is inactive: -3.46%. The figure for `COc1cccc(C(=O)NCC2(N3CCCCC3)CCCCC2)c1` is inactive: -3.58%.
